Reference: ChEMBL document CHEMBL1146752, “Oxamyl dipeptide caspase inhibitors developed for the treatment of stroke” (Bioorg Med Chem Lett, 2004)

Protein sequences, listed by entry. Tags and fused reporters are not part of them. Lines headed by an entry give the natural chain unless they say otherwise; changes in a name come on top.
UniProt Q14790: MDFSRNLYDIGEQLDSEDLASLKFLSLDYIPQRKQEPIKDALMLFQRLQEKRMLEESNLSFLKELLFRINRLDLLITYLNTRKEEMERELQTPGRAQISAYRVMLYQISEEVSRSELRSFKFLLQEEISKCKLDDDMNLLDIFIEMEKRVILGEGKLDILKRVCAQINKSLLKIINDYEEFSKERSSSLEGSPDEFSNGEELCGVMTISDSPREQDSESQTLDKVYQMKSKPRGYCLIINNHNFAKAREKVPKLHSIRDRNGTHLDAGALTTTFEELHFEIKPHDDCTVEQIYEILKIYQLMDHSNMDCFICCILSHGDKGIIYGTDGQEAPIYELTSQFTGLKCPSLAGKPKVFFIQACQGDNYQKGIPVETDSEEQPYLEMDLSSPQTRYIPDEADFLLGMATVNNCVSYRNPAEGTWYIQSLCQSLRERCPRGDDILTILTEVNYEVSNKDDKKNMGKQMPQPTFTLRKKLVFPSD

Key:
[1] = target: T1, Caspase-1 (Mus musculus) (UniProt P29452)
T1 sequence (whole entry): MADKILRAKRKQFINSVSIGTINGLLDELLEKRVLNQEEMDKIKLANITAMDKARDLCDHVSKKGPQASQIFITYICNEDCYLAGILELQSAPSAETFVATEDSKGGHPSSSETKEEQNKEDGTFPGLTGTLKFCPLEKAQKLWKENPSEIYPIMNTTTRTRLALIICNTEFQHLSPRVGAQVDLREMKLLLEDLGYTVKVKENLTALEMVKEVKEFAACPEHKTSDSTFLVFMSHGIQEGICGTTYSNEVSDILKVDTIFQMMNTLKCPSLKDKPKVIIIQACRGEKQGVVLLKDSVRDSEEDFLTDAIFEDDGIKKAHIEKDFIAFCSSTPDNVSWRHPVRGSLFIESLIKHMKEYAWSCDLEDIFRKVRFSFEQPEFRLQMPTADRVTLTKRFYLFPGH

[2] = target: Caspase-8 (Homo sapiens, UniProt Q14790)
[3] = tested on: SKW 6.4; assay: Inhibitory activity was evaluated against human SKW 6.4 cell line in cellular assay; assay type: functional, cell-based
Summary of the method: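 Cellular assay (Con A; SKW 6.4 cells) run for 24 h at 37 °C. Read-out is IC50 (µM).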

[4] = target: T2, Caspase-3 (Homo sapiens) (UniProt P42574)
T2 sequence (whole entry): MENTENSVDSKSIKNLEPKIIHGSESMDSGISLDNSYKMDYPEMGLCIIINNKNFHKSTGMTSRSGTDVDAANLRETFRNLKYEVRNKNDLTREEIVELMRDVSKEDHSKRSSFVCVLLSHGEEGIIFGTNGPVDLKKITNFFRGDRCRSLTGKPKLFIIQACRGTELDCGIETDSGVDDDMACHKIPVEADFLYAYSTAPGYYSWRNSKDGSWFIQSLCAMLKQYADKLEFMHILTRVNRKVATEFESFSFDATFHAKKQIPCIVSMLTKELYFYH

[5] = target: T3, Caspase-6 (Homo sapiens) (UniProt P55212)
T3 sequence (whole entry): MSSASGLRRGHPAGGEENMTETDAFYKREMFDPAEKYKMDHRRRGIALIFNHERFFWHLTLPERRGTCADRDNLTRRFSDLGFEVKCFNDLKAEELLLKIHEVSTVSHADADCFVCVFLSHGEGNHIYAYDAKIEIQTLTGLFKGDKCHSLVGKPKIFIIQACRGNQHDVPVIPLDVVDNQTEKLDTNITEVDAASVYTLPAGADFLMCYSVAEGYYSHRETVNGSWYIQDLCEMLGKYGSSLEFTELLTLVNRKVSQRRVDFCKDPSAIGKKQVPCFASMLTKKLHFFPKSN

[6] = tested on: THP-1; assay: Inhibitory activity evaluated against human THP-1 cell line in cellular assay; assay type: functional, cell-based
Summary of the method: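 Human cells (monocytes; THP-1 line) in a caspase-1-dependent cellular assay run for 24 h at 37 °C. Read-out is IC50 (µM).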

| Compound | k3/Ki [1] [M⁻¹ s⁻¹] | k3/Ki [2] [M⁻¹ s⁻¹] | IC50 [3] [nM] | k3/Ki [4] [M⁻¹ s⁻¹] | k3/Ki [5] [M⁻¹ s⁻¹] | IC50 [6] [nM] |
| --- | --- | --- | --- | --- | --- | --- |
| CC(C)[C@H](NC(=O)C(=O)Nc1ccccc1Br)C(=O)N[C@@H](CC(=O)O)C(=O)COc1c(F)c(F)cc(F)c1F | 7.16e+06 | 2.35e+06 | 1270 | 1.27e+06 | 504000 | – |
| CC(C)[C@H](NC(=O)C(=O)Nc1cccc2ccccc12)C(=O)N[C@@H](CC(=O)O)C(=O)COc1cccc2ccccc12 | 378000 | 12 | – | 11700 | 268 | – |
| CC(C)[C@H](NC(=O)C(=O)Nc1ccccn1)C(=O)N[C@@H](CC(=O)O)C(=O)COc1c(F)c(F)cc(F)c1F | 22000 | 42200 | – | 118000 | 64100 | – |
| CC(C)[C@H](NC(=O)C(=O)NN(C(=O)c1ccccc1)c1ccccc1)C(=O)N[C@@H](CC(=O)O)C(=O)COc1c(F)c(F)cc(F)c1F | 5.59e+06 | 526000 | – | 104000 | 124000 | – |
| CC(C)[C@H](NC(=O)C(=O)Nc1cccc(Oc2ccccc2)c1)C(=O)N[C@@H](CC(=O)O)C(=O)COc1c(F)c(F)cc(F)c1F | 191000 | 82700 | – | 245000 | 186000 | – |
| CC(C)[C@H](NC(=O)C(=O)Nc1ccccc1Cc1ccccc1)C(=O)N[C@@H](CC(=O)O)C(=O)COc1c(F)c(F)cc(F)c1F | 1.16e+06 | 936000 | – | 187000 | 214000 | – |
| CC(C)[C@H](NC(=O)C(=O)NC12CC3CC(CC(C3)C1)C2)C(=O)N[C@@H](CC(=O)O)C(=O)COc1c(F)c(F)cc(F)c1F | 172000 | 155000 | – | 68900 | 129000 | – |
| CC(C)[C@H](NC(=O)C(=O)N(C)c1cccc2ccccc12)C(=O)N[C@@H](CC(=O)O)C(=O)COc1c(F)c(F)cc(F)c1F | 236 | 0 | – | 2 | 78 | – |
| CC(C)[C@H](NC(=O)C(=O)Nc1cccc2ccccc12)C(=O)N[C@@H](CC(=O)O)C(=O)COc1ccc(-c2ccccc2)cc1 | 58000 | 0 | – | 1660 | 0 | – |
| CCCCC(NC(=O)C(=O)Nc1cccc2ccccc12)C(=O)N[C@@H](CC(=O)O)C(=O)COc1c(F)c(F)cc(F)c1F (stereo partly drawn) | 2.57e+06 | 1.83e+06 | – | 149000 | 175000 | 1490 |
| CC(C)[C@H](NC(=O)C(=O)Nc1ccc(F)cc1)C(=O)N[C@@H](CC(=O)O)C(=O)COc1c(F)c(F)cc(F)c1F | 106000 | 179000 | – | 8.16e+06 | 247000 | – |
| CC(C)[C@H](NC(=O)C(=O)NC(c1ccccc1)c1ccccc1)C(=O)N[C@@H](CC(=O)O)C(=O)COc1c(F)c(F)cc(F)c1F | 442000 | 119000 | – | 67700 | 54900 | – |
| O=C(O)C[C@H](NC(=O)C(NC(=O)C(=O)Nc1cccc2ccccc12)c1ccccc1)C(=O)COc1c(F)c(F)cc(F)c1F (stereo partly drawn) | 1.08e+06 | 1.31e+06 | – | 276000 | 230000 | – |
| CC(C)[C@H](NC(=O)C(=O)Nc1c(F)cccc1F)C(=O)N[C@@H](CC(=O)O)C(=O)COc1c(F)c(F)cc(F)c1F | 278000 | 396000 | – | 323000 | 281000 | – |
| CC(C)[C@H](NC(=O)C(=O)Nc1cc(F)c(F)c(F)c1F)C(=O)N[C@@H](CC(=O)O)C(=O)COc1c(F)c(F)cc(F)c1F | 266000 | 58900 | – | 113000 | 62600 | – |
| CC(C)[C@H](NC(=O)C(=O)Nc1ccccc1C(F)(F)F)C(=O)N[C@@H](CC(=O)O)C(=O)COc1c(F)c(F)cc(F)c1F | 1.94e+06 | 1.63e+06 | – | 842000 | 745000 | – |
| CC(C)[C@H](NC(=O)C(=O)Nc1cccc2ccccc12)C(=O)N[C@@H](CC(=O)O)C(=O)COP(C)(=O)c1ccccc1 (stereo partly drawn) | 1.4e+06 | 847000 | – | 529000 | 165000 | – |
| CC(C)[C@H](NC(=O)C(=O)Nc1c(F)cc(F)c(F)c1F)C(=O)N[C@@H](CC(=O)O)C(=O)COc1c(F)c(F)cc(F)c1F | 416000 | 126000 | – | 208000 | 24000 | – |
| CC(C)[C@H](NC(=O)C(=O)Nc1cccc2c1CCCC2)C(=O)N[C@@H](CC(=O)O)C(=O)COc1c(F)c(F)cc(F)c1F | 905000 | 1.15e+06 | – | 139000 | 132000 | – |
| CC(C)[C@H](NC(=O)C(=O)NN(c1ccccc1)c1ccccc1)C(=O)N[C@@H](CC(=O)O)C(=O)COc1c(F)c(F)cc(F)c1F | 1.23e+06 | 667000 | – | 169000 | 131000 | – |
| CC(C)[C@H](NC(=O)C(=O)Nc1cnccn1)C(=O)N[C@@H](CC(=O)O)C(=O)COc1c(F)c(F)cc(F)c1F | 27600 | 50400 | – | 149000 | 124000 | – |
| CC(C)[C@H](NC(=O)C(=O)NC1CCCc2ccccc21)C(=O)N[C@@H](CC(=O)O)C(=O)COc1c(F)c(F)cc(F)c1F (stereo partly drawn) | 46000 | 18700 | – | 20500 | 21100 | – |
| CC(C)[C@H](NC(=O)C(=O)NOCc1ccccc1)C(=O)N[C@@H](CC(=O)O)C(=O)COc1c(F)c(F)cc(F)c1F | 36300 | 46300 | – | 78300 | 66200 | – |
| O=C(O)C[C@H](NC(=O)C1CCCCN1C(=O)C(=O)Nc1cccc2ccccc12)C(=O)COc1c(F)c(F)cc(F)c1F (stereo partly drawn) | 36000 | 19500 | – | 9850 | 11600 | – |
| CNC(=O)C(=O)N[C@H](C(=O)N[C@@H](CC(=O)O)C(=O)COc1c(F)c(F)cc(F)c1F)C(C)C | 16800 | 21200 | – | 149000 | 126000 | – |
| CC(C)[C@H](NC(=O)C(=O)Nc1ccccc1Cl)C(=O)N[C@@H](CC(=O)O)C(=O)COc1c(F)c(F)cc(F)c1F | 2.02e+06 | 2.14e+06 | – | 1.17e+06 | 655000 | – |
| CC(C)[C@H](NC(=O)C(=O)Nc1cccc2ccccc12)C(=O)N[C@@H](CC(=O)O)C(=O)COS(=O)c1ccccc1 (stereo partly drawn) | 2970 | 1 | – | 342 | 459 | – |
| CC(C)[C@H](NC(=O)C(=O)Nc1ccccc1F)C(=O)N[C@@H](CC(=O)O)C(=O)COc1c(F)c(F)cc(F)c1F | 195000 | 248000 | – | 221000 | 192000 | – |
| CC(C)[C@H](NC(=O)C(=O)Nc1cccc2cc3ccccc3cc12)C(=O)N[C@@H](CC(=O)O)C(=O)COc1c(F)c(F)cc(F)c1F | 1.76e+07 | 1.92e+06 | – | 260000 | 2.64e+06 | – |
